Patent publication US8809358B2, “Use of IκB-kinase inhibitors in pain therapy” (Sanofi-Aventis Deutschland GmbH, priority 2002, dated 2014)

Protein sequences, listed by entry. Tags and fused reporters are not part of them. Lines headed by an entry give the natural chain unless they say otherwise; changes in a name come on top.
UniProt O14920: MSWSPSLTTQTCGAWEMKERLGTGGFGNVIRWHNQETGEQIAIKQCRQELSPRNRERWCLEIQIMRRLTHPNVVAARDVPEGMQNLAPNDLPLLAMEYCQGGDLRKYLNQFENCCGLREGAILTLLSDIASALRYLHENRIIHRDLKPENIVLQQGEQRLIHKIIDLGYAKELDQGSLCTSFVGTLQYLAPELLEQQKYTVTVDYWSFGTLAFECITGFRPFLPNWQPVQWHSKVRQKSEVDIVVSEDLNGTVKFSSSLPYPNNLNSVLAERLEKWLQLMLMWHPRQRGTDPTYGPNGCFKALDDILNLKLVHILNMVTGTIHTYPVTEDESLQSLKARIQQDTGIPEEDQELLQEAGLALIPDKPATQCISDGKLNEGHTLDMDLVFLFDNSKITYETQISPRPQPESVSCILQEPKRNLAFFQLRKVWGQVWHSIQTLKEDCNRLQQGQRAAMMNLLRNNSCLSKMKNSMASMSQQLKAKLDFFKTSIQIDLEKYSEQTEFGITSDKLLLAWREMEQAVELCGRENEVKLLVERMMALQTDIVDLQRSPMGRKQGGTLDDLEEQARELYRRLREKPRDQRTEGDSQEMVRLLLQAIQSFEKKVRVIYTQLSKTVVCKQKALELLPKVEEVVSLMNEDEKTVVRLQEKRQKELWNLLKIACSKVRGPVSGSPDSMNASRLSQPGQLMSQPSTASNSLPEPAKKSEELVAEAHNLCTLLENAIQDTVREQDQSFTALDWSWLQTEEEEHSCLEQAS
UniProt O15111: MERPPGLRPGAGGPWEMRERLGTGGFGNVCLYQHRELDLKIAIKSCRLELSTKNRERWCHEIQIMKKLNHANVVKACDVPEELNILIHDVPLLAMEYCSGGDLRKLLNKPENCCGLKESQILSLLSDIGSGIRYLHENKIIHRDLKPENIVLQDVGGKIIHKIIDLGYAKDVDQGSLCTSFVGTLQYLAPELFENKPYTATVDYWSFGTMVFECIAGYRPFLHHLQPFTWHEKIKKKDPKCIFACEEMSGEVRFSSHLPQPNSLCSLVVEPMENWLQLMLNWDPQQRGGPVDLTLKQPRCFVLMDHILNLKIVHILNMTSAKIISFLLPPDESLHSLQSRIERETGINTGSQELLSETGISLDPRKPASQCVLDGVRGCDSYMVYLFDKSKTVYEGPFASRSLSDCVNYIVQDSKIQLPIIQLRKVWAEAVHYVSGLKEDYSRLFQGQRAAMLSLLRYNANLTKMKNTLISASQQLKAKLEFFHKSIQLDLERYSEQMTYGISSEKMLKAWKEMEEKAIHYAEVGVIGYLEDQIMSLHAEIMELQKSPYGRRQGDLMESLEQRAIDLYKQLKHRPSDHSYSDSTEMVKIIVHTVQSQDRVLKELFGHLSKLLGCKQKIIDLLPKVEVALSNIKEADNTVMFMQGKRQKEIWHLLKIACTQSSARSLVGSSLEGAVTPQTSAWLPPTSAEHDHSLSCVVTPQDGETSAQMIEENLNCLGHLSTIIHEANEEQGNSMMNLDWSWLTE

How the values were obtained:
IκB-kinase = target: T1, IκB-kinase (Homo sapiens, UniProt O14920+O15111); assay: IκB-Kinase ELISA; assay type: biochemical
T1 construct: endogenous in cells; host or cells: HeLa S3 cell extract S100; ammonium sulfate cut and Superose-6 gel filtration (670 kDa fractions)
Description: The activity of the IκB-kinase was determined using an ELISA which comprised a biotinylated substrate peptide, which contained the amino acid sequence in the IκB protein from serine 32 to 36, and a specific polyclonal or monoclonal antibody (e.g. from New England Biolabs, Beverly, Mass., USA, Cat.: 9240), which only bound to the phosphorylated form of the IκB peptide. This complex was immobilized on an antibody-binding (protein A-coated) plate and detected using a conjugate composed of a biotin-binding protein and HRP (e.g. streptavidin-HRP). The activity was quantified with the aid of a standard curve constructed using substrate phosphopeptide.
In order to obtain the kinase complex, 10 ml of HeLa S3 cell extract S100 were diluted with 40 ml of 50 mM HEPES, pH 7.5, brought to 40% with respect to ammonium sulfate and incubated on ice for 30 minutes. The precipitated pellet was dissolved in 5 ml of SEC buffer (50 mM HEPES, pH 7.5, 1 mM DTT, 0.5 mM EDTA, 10 mM 2-glycerophosphate), centrifuged at 20 000 g for 15 minutes and filtered through a 0.22 μm filter. […] The absorption was measured at 450 nm. […] This standard curve was used to quantify the enzyme activity or its inhibition by the test substances.

[1] = system: Zymosan-induced paw inflammation; assay: Zymosan-induced paw inflammation in the mouse: paw withdrawal time during thermal stimulation of the hind paw; assay type: in vivo; conditions: 7-day study, orally twice daily
Description: • Zymosan-induced paw inflammation in the mouse; • Parameter: paw withdrawal time during thermal stimulation of the hind paw. Experimental implementation: In short-term anesthesia using isoflurane, 25 μl of a suspension containing 50 mg of zymosan/ml were injected into the right hind paw of the experimental animal. The development of a hyperalgesia was then determined quantitatively as follows: Determining the Paw Withdrawal Time During Thermal Stimulation (Hargreave's Test; See Above). The experimental animal was placed in a transparent plastic chamber having a glass floor. As soon as the experimental animal was no longer moving, following the reconnaissance phase (about 5 min), an infrared light source was positioned directly below the hind paw to be stimulated and switched on. The lamp emitted focused infrared light of increasing intensity such that the skin temperature of the hind paw increased almost linearly. […] Shortly before the zymosan injection, and for from 7 to 14 days after the injection, the thermal pain threshold was determined once daily on the right hind paw and left hind paw. Subsequently, the integral of the area which was formed from the curves for the paw withdrawal times of the inflamed paw and the noninflamed paw (AUC, area between the curves, see tables 5 and 6) was determined as a measure of the hyperalgesia. […]

Question: With `CNc1nccc(-c2cc3cc(C(=O)N[C@@H](CN(c4ccccc4)c4ccccc4)c4n[nH]c(=O)o4)ccc3[nH]2)n1` [Compound 13, N—[(S)-2-diphenylamino-1-(5-oxo-4,5-dihydro[1,3,4]oxadiazol-2-yl)ethyl]-2-(2-methylaminopyrimidin-4-yl)-1H-indole-5-carboxamide] as the compound, how does the IC50 (IκB-kinase) read?
Answer: 50 nM

Question: What about the “single dose giving a significant therapeutic effect as compared with the vehicle group” value [1] of the same compound?
Answer: ≥ 8.3 mg/kg
